The text below walks through data of patent US12502434B2, “Compound comprising EZH2 inhibitor and E3 ligase binder and pharmaceutical composition for preventing or treating EZH2-associated disease comprising same as active ingredient” (DAEGU-GYEONGBUK MEDICAL INNOVATION FOUNDATION, priority 2019, dated 2025).

The chains behind the UniProt entries cited, without tags or fusion partners.
UniProt Q15910, whole entry: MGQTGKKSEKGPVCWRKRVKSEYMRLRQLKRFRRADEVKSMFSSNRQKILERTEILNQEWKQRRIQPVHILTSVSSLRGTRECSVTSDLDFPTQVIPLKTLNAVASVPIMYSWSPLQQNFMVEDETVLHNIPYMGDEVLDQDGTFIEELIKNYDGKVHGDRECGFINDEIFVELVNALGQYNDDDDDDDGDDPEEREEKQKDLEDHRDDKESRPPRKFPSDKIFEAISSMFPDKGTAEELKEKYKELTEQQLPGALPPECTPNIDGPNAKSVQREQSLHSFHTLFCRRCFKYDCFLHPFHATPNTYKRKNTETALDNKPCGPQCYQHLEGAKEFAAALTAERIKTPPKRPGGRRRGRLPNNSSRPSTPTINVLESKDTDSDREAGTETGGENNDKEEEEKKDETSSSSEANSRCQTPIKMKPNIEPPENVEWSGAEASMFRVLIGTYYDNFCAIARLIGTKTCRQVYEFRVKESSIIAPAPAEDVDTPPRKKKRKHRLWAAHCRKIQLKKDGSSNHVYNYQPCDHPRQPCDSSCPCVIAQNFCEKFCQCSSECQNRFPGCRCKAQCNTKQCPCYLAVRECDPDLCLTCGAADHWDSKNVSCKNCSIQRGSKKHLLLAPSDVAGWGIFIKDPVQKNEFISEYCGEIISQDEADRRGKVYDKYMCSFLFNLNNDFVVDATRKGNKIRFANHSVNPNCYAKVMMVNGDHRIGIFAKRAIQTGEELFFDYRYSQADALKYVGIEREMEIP

This assay deals with T1, EZH2 protein in LS174T cells (Homo sapiens, UniProt Q15910).
T1 construct: endogenous in cells; host or cells: LS174T
Description: Proteolytic effect in colorectal cancer cells (Western blotting). It counts as cell-based. How it is done:
After 72 hours of the treatment, the cells were collected and lysed using RIPA buffer (50 mM Tris, pH 7.5, 150 mM NaCl, 1% Triton X-100, 0.1% SDS, […], 0.5% deoxycholate, and protease inhibitor cocktail), followed by sonication (30 sec on/30 sec off, 5 cycles) to prepare a cell lysate.

On to `CCN(c1cc(-c2ccc(CN3CCN(CC(=O)NCCCCCOCCOCCC(=O)N[C@H](C(=O)N4C[C@H](O)C[C@H]4C(=O)NCc4ccc(-c5scnc5C)cc4)C(C)(C)C)CC3)cc2)cc(C(=O)NCc2c(C)cc(C)[nH]c2=O)c1C)C1CCOCC1` [Example 44, (2S,4R)-1-((S)-2-(tert-butyl)-18-(4-((3′-(((4,6-dimethyl-2-oxo-1,2-dihydropyridine-3-yl)methyl)carbamoyl)-5′-(ethyl(tetrahydro-2H-pyran-4-yl)amino)-4′-methyl-[1,1′-biphenyl]-4-yl)methyl)piperazine-1-yl)-4,17-dioxo-7,10-dioxa-3,16-diazaoctadecanoyl)-4-hydroxy-N-(4-(4-methylthiazole-5-yl)benzyl)pyrrolidine-2-carboxamide], for which the “%, degradation at 1 uM” value turned out to be 73.57% and the “Grade (percent value of the protein degradation when treated with 1 μM)” value was “B (key: A: >75%; B: 50-75%; C: 25-50%; D: <25%)”.
